One substance from patent US7527952B2, “Crystals of inosine monophosphate dehydrogenase/oxidized inosine monophosphate thiomidate intermediate/mycophenolic acid (IIMPDH/XMP*/MPA)” (Vertex Pharmaceuticals Incorporated, priority 1996, dated 2009) can be followed below.

Chains of the proteins cited; added tags and fusions are not shown.
UniProt P12269, whole entry: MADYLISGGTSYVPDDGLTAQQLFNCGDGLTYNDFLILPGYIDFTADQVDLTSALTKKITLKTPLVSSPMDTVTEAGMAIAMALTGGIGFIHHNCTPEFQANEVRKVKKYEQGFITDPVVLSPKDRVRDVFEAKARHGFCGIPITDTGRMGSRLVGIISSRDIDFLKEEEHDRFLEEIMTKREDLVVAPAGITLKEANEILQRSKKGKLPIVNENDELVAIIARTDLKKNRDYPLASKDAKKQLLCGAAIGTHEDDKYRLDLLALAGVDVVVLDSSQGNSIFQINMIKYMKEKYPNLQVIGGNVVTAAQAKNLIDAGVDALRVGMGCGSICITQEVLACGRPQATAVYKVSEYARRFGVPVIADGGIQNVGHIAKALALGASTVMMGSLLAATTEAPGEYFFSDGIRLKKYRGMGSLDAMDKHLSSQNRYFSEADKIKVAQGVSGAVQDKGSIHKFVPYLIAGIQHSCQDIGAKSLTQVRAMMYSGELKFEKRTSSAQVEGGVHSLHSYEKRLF

Common to all, as to format: biochemical
For test [1], the target named is T1, human type II IMPDH Thr 333 to Ile mutant (Homo sapiens, UniProt P12268, T333I).
T1 construct: The full length IMPDH cDNA carrying the confirmed mutation was then subcloned into a pSPC27 vector; made in house; host or cells: E. coli strain H712 (IMPDH-deficient), pSPC27 vector
In words: MPA inhibition of IMPDH mutant, Thr 333 to Ile (Ki app.). As to conditions: Thr 333 substituted with Ile; saturating IMP and NAD.

Test [2] concerns the target T2, human type II IMPDH Gln 441 to Ala mutant (Homo sapiens, UniProt P12268, Q441A).
T2 construct: The full length IMPDH cDNA carrying the confirmed mutation was then subcloned into a pSPC27 vector; made in house; host or cells: E. coli strain H712 (IMPDH-deficient), pSPC27 vector
The test is described as follows: MPA inhibition of IMPDH mutant, Gln 441 to Ala (Ki app.). The settings on record: Gln 441 substituted with Ala; saturating IMP and NAD.

The target of test [3] is T3, human type II IMPDH Ser 276 to Ala mutant (Homo sapiens, UniProt P12268, S276A).
T3 construct: The full length IMPDH cDNA carrying the confirmed mutation was then subcloned into a pSPC27 vector; made in house; host or cells: E. coli strain H712 (IMPDH-deficient), pSPC27 vector
In words: MPA inhibition of IMPDH mutant, Ser 276 to Ala (Ki app.). As to conditions: Ser 276 mutated to Ala; saturating IMP and NAD.

The target in test [4] is Chinese hamster IMPDH (Cricetulus griseus, UniProt P12269). In words: Inhibition of Chinese hamster IMPDH.

As for mycophenolic acid [MPA], the “increase of Ki app. of MPA relative to wild type” value in test [1] stood at 300 fold; in test [2], 25 fold. In addition, the “increase in Ki app. of MPA relative to wild type” value in test [3] was 7 fold. For the same substance, the “type of inhibition of Chinese hamster IMPDH” value in test [4] was “potent, uncompetitive, inhibitor”.
